{"source": "ChEMBL document CHEMBL4017539", "about": "“Oral Delivery of Propofol with Methoxymethylphosphonic Acid as the Delivery Vehicle” (J Med Chem, 2017)", "tested_on": "Mus musculus", "test": "Toxicity in ICR mouse assessed as death at 200 mg equiv/kg parent drug administered via oral gavage relative to control", "details": "in vivo", "note": "Only a part of the results on these compounds is given; other tests are left out.", "data": [{"smiles": "CCCP(=O)(N[C@@H](C)C(=O)OCC)Oc1c(C(C)C)cccc1C(C)C", "note": "(stereo partly specified)", "values": [{"measurement": "mortality", "result": 0, "unit": "%"}]}]}
